Results on one molecule are retold here after ChEMBL document CHEMBL5233252, “Single and dual target inhibitors based on Bcl-2: Promising anti-tumor agents for cancer therapy” (Eur J Med Chem, 2020).

Protein sequences, listed by entry. Tags and fused reporters are not part of them.
UniProt P10415, whole entry: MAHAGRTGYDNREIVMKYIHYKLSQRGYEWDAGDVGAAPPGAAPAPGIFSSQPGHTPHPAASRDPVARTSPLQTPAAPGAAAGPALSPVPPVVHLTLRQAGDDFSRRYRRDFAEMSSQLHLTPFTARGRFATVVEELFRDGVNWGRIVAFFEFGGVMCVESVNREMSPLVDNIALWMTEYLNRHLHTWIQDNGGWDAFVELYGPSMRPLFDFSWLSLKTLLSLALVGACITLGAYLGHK

In this experiment the target is Apoptosis regulator Bcl-2 (Homo sapiens, UniProt P10415). In words: Binding affinity to Bcl-2 (unknown origin) assessed as inhibition constant by competitive fluorescence polarization assay.

A word on the Ki: it is a measure of affinity in units of concentration, obtained from inhibition or displacement. `CC1(C)CCC(c2ccc(Cl)cc2)=C(CN2CCN(c3ccc(C(=O)NS(=O)(=O)c4ccc(N[C@H](CCN5CCOCC5)CSc5ccccc5)c(S(=O)(=O)C(F)(F)F)c4)cc3)CC2)C1` [NAVITOCLAX]: the inhibitory constant (Ki) is no more than 1 nM.
